Drawing on patent US20240383901A1, “SUBSTITUTED PYRROLO[2,3-D]PYRIMIDINES, THEIR PREPARATION AND THEIR THERAPEUTIC APPLICATION” (SANOFI, priority 2021, published 2024), this text covers IC50 for 2 molecules.

By UniProt entry, the sequences of proteins in these tests, tags left out.
UniProt Q5S007, whole entry G2019S: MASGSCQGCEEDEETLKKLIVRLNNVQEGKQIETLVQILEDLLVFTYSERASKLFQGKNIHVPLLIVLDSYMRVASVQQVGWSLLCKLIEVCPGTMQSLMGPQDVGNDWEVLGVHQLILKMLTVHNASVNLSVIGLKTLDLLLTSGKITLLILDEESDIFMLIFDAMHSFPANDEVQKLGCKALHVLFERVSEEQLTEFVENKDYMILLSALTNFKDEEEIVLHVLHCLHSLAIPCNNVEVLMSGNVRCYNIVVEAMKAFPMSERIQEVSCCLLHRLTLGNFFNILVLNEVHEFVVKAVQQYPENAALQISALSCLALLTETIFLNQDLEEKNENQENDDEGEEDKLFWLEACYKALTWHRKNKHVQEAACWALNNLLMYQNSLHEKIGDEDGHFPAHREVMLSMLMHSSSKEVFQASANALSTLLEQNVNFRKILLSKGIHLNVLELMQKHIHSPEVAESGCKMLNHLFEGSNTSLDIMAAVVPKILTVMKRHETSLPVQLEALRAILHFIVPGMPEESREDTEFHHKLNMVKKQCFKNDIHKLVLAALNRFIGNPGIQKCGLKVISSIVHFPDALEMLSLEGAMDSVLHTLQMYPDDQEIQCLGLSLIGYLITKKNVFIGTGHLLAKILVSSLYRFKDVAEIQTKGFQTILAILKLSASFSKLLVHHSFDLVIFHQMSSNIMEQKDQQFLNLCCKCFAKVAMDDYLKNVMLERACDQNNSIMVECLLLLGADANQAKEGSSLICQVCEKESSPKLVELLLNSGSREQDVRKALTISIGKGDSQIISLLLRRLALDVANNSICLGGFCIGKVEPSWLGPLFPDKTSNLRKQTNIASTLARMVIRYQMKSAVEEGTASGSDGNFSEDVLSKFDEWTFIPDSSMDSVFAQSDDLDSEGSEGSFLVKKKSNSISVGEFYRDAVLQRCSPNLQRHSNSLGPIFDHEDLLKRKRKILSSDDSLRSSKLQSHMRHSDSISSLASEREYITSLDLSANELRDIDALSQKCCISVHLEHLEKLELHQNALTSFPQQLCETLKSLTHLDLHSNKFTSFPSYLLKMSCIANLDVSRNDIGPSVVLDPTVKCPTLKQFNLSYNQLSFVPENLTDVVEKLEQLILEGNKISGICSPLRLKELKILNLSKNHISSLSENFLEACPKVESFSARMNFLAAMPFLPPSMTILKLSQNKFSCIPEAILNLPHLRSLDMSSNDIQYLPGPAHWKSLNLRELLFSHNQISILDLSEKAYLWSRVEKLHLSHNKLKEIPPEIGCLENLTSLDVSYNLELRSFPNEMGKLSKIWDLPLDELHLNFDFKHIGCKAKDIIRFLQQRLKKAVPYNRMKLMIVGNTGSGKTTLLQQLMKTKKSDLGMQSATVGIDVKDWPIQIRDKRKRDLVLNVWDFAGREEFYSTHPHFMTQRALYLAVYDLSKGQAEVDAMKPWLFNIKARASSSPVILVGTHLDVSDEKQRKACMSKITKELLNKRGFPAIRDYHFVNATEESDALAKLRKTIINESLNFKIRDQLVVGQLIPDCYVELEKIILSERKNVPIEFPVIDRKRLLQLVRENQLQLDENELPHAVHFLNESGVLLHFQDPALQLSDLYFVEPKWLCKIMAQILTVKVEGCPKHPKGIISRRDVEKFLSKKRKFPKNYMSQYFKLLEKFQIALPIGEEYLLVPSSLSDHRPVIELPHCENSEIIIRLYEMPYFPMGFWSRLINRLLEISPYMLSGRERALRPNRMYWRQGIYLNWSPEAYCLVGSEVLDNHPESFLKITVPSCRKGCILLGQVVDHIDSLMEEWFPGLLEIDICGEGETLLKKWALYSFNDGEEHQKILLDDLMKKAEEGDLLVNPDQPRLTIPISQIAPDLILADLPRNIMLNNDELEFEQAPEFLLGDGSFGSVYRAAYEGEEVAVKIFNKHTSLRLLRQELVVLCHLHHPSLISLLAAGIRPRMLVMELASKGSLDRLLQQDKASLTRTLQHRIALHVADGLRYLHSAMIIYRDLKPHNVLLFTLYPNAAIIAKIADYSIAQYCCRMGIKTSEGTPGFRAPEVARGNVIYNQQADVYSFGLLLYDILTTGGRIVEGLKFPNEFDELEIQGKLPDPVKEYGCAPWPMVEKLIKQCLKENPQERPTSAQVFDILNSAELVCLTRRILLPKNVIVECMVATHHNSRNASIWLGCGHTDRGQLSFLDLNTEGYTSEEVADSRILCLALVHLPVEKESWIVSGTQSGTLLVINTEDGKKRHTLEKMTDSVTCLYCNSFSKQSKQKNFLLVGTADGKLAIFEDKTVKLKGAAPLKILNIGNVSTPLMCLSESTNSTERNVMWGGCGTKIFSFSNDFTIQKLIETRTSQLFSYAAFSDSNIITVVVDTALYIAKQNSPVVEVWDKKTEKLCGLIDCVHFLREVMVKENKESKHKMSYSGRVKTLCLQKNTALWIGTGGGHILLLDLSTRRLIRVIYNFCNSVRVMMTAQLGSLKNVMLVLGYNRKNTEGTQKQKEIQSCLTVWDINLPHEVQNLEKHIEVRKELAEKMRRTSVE

What all share (format): biochemical
One test addresses LRRK2 (Homo sapiens, UniProt Q5S007). The experiment in a line: LRRK2 WT assay (Assay B, radiometric 33P-ATP filter binding). To be noted: Assay B (values marked *). How it is done:
LRRK2(human) is incubated with 50 mM HEPES pH 8.0, 0.2 mM EDTA, 0.01% Brij-35, 1% (w/v) BSA, 5 mM DTT, 250 Mm […], 10 mM Magnesium acetate and [[…]]-ATP (specific activity and concentration as required).
The reaction is initiated by the addition of the Mg/ATP mix.

A further test addresses T1, full-length LRRK2 G2019S (Homo sapiens, UniProt Q5S007, G2019S).
T1 construct: DYKDDDDK-tagged full-length LRRK2 G2019S protein; DYKDDDDK (FLAG)
Briefly: LRRK2-G2019S kinase activity assay (Lanthascreen TR-FRET). Conditions: 1.1 mM ATP. How it is done:
(§1) The measurements of the activities were made using a LRRK2-G2019S(human) Kinase activity assay as described hereunder. The potency of compounds was evaluated in vitro using the Lanthascreen® technology (ThermoFisher Scientific).
The biological assay requires the DYKDDDDK-tagged full-length LRRK2 G2019S protein, the fluorescent peptide substrate named LRRKtide or ERM (RLGRDKYKTLRQIRQ supplied by PolyPeptide Group), the ATP substrate, and different concentrations of test compounds. In a typical experiment, the reaction assay buffer contains 50 mM Tris pH8.2, 1 mM EGTA, 2.5 mM MgCl2, 0.05% Triton X100, 0.15% BSA and 1 mM DTT. The detection of the assay is performed using 1 nM Terbium labeled anti-phospho-LRRKtide (ThermoFisher Scientific) diluted in a TR-FRET buffer (ThermoFisher Scientific).
The experimental procedure was performed with Greiner small volume® 384-well. […]
(§2) The kinase reaction was initiated by addition of the ATP/LRRKtide substrate mix diluted in the reaction assay buffer. […] Plates are incubated for at least 30 minutes at room temperature and read on an Envision™ multimode plate reader (PerkinElmer) with LanthaScreen™. The TR-FRET 520:495 nm emission ratio was calculated and used to determine the IC50 value from a dose response curve fit to the 4-parameter logistic equation. […]

Test [1] deals with T2, full-length LRRK2 wild type (Homo sapiens, UniProt Q5S007).
T2 construct: DYDDDDK tagged full-length LRRK2 wild type is used
Briefly: LRRK2 WT assay (Assay A, Lanthascreen TR-FRET, 500 uM ATP). To be noted: Assay A (values without *). The protocol: as §1
The biological assay requires the DYKDDDDK-tagged full-length LRRK2 G2019S protein, the fluorescent peptide substrate named LRRKtide or ERM (RLGRDKYKTLRQIRQ supplied by PolyPeptide Group), the ATP substrate, and different concentrations of test compounds. In a typical experiment, the reaction assay buffer contains 50 mM Tris pH8.2, 1 mM EGTA, 2.5 mM MgCl2, 0.05% Triton X100, 0.15% BSA and 1 mM DTT. […]
as §2
The kinase activity of LRRK2(human) WT was evaluated according to same method described in LRRK2-G2019 kinase activity assay as described above, except DYDDDDK tagged full-length LRRK2 wild type is used instead of DYKDDDDK-tagged full-length LRRK2 G2019S, and 500 uM ATP is used in WT assay instead of 1.1 mM ATP.
(In general: In TR-FRET formats the signal depends on donor and acceptor labels being close together.)

Usually IC50 stands for the point on the concentration scale where inhibition reaches its midpoint.

In turn, `Cn1cc(Nc2ncc3cc(C#N)n(C4CCOCC4)c3n2)c(OC2COC2)n1` [Example 80, 2-((1-Methyl-3-(oxetan-3-yloxy)-1 H-pyrazol-4-yl)amino)-7-(tetrahydro-2H-pyran-4-yl)-7H-pyrrolo[2,3-d]pyrimidine-6-carbonitrile] showed an IC50 on LRRK2 of 20 nM.

Take `[2H]C([2H])([2H])n1cc(Nc2ncc3cc(C#N)n(C4CCOCC4)c3n2)c(OC2COC2)n1` [Example 123, 2-((1-(Methyl-d3)-3-(oxetan-3-yloxy)-1 H-pyrazol-4-yl)amino)-7-(tetrahydro-2H-pyran-4-yl)-7H-pyrrolo[2,3-d]pyrimidine-6-carbonitrile]: the results for the IC50 (against full-length LRRK2 G2019S; in test [1]) were 187 nM and 125 nM, respectively.
